Source: article PMC10254235, “Design, Synthesis, and Anti-Cervical Cancer and Reversal of Tumor Multidrug Resistance Activity of Novel Nitrogen-Containing Heterocyclic Chalcone Derivatives” (Molecules, 2023)

Tested on: p-VEGFR-2
Assay: Western blot, VEGFR-2 phosphorylation in HUVEC cells

## CNC(=O)c1cc(Oc2ccc(NC(=O)Nc3ccc(Cl)c(C(F)(F)F)c3)cc2)ccn1 [Sorafenib, reference compound]
  phosphorylation of VEGFR-2 in HUVEC cells (Western blot): significantly inhibited the phosphorylation of VEGFR-2
